Experimental data: patent US20200392084A1 (priority 2017, published 2020)

Tests used:
[1] = not given; remark: listed apart in the source

Substance: sulfasalazine benzenesulfonic acid (1:1) salt [Benzenesulfonic Acid Salt]
- Thermodynamic solubility, Concentration (pH 1): <LOD
- Thermodynamic solubility, XRPD of remaining solid (pH 1): Sulfasalazine
- Thermodynamic solubility, Concentration (pH 4.5): <LOD
- Thermodynamic solubility, XRPD of remaining solid (pH 4.5): Sulfasalazine
- Thermodynamic solubility, Concentration (pH 6.8): <LOD
- Thermodynamic solubility, XRPD of remaining solid (pH 6.8): Sulfasalazine

Substance: sulfasalazine tromethamine (1:1) salt [Tromethamine Salt]
- Solubility Estimate ([1]; 2-butanol): <1000 µg/mL
- Solubility Estimate ([1]; DMSO): >82000 µg/mL
- Solubility Estimate ([1]; EtOAc): <1000 µg/mL
- Solubility Estimate ([1]; EtOH): 5000 µg/mL
- Solubility Estimate ([1]; MeOH): 27000 µg/mL
- Solubility Estimate ([1]; THF): 2000 µg/mL
- Solubility Estimate ([1]; acetone): 2000 µg/mL
- Solubility Estimate ([1]; acetonitrile (ACN)): <1000 µg/mL
- Solubility Estimate ([1]; chloroform): <1000 µg/mL
- Solubility Estimate ([1]; heptane): <1000 µg/mL
- Solubility Estimate ([1]; isopropyl alcohol (IPA)): <1000 µg/mL
- Solubility Estimate ([1]; water): 13000 µg/mL
- Post-agitation pH (pH 1): 1.61
- Pre-agitation pH (pH 1): 1.36
- Post-agitation pH (pH 4.5): 6.98
- Pre-agitation pH (pH 4.5): 5.80
- Post-agitation pH (pH 6.8): 6.95
- Pre-agitation pH (pH 6.8): 6.89

Where two headings read alike, the source gives them in different places.
